# Screening results (PubChem BioAssay)
# Most compounds without a hit are left out; they make up all but 1.5% or so of the library.
# UUG fidelity – modulators of start codon recognition fidelity in yeast; S. cerevisiae UUG-firefly luciferase reporter, luminescence/redox ratio; AID 602363; 350,000 tested, 0.13% active; activity score, % at 18.7 µM;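 active = replicate mean at a twofold rise or more, about +100% in these data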;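 also: firefly luciferase made from a UUG start codon reports start codon fidelity; reporter light over untreated wells divided by growth signal over untreated wells; some hits fall short of that in this replicate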
# PABP1 MLLE inh – inhibitors of microRNA-mediated deadenylation, human PABP1 MLLE binding. inhibition, % at 20 µM. 360,000 tested, 0.36% active. AID 588489. GST-MLLE / FITC-PAM2 fluorescence polarization; in the data active = inhibition above about 35%, passing the limit was not always enough;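 also: plate controls were DMSO wells with GST-MLLE for no effect and wells lacking GST-MLLE protein for full effect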
# eIF4H inh – inhibitors of RNA binding by human eIF4H | eIF4H fluorescence polarization binding assay | 290,000 tested, 0.94% active | inhibition, % at 35 µM | Q15056;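 also: calls also rest on retests at 20 µM and on dose response follow-up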
# Pemphigus Ab inh – blocks pemphigus antibody binding to human desmoglein-3 | P32926 | DSG3-coupled beads, scFv-anti-DSG3-GFP binding, flow cytometry; hits give low values | binding (percent of control), % at 10 µM | 310,000 tested, 0.48% active | AID 588358;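 active = binding more than 3 SD below its plate's average and above zero; inconclusive = below that plate limit but binding exactly zero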;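 also: hits lower antibody fragment binding to DSG3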
# PABP polyA inh – blocks human PABP binding to poly(A) RNA; P11940; calls only at 35 µM; 290,000 tested, 1% active; AID 2014; fluorescence polarization;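 also: calls also rest on retests at 20 µM and on dose response follow-up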
# Starred values were filed as active, the others as inactive; i = inactive; ? = inconclusive; nt = no result; + = active, no number. Unless noted, no rule for the calls is given here.
SMILES,UUG fidelity,PABP1 MLLE inh,eIF4H inh,Pemphigus Ab inh,PABP polyA inh
COc1ccc(NC(=O)c2ccc(-n3cncn3)c([N+](=O)[O-])c2)cc1,-18,9,10,98,+
O=C(COc1ccc(Br)cc1)NNC(=O)c1ccc(-n2cncn2)c([N+](=O)[O-])c1,-5,58*,nt,96,nt
COc1ccc(S(=O)(=O)Nc2ccc3c(c2)C(=O)N([C@@H](C)CO)C[C@H](C)[C@H](CN(C)C(=O)Nc2cccc4ccccc24)OCCCC[C@H](C)O3)cc1,3,nt,nt,nt,nt
CCNC(=O)C[C@@H]1CC[C@H]2[C@@H](COc3ccc(NC(=O)Nc4cccc(Cl)c4)cc3C(=O)N2C)O1,-4,nt,nt,nt,nt
O=C(N/N=C/c1ccc(-c2ccc(S(=O)(=O)Nc3ncccn3)cc2)o1)c1cc2ccccc2cc1O,-14,-6,83*,90,+
CCOc1ccc(C(=O)N/N=C/c2ccc(-c3ccc(S(=O)(=O)Nc4ncccn4)cc3)o2)cc1,nt,-1,69*,101,+
O=C(Nc1cc(F)ccc1F)N[C@@H]1CC[C@@H](CCn2cc(C3CCCCC3)nn2)O[C@@H]1CO,22,nt,nt,nt,nt
CO[C@H]1CN(C)C(=O)c2cc(NS(=O)(=O)CC(F)(F)F)ccc2OC[C@@H](C)N(Cc2cccnc2)C[C@@H]1C,-1,nt,nt,nt,nt
Cc1cccc(C)c1NC(=O)CN(C)C(=O)c1cccc(S(=O)(=O)N2CCN(c3ccc(F)cc3)CC2)c1,4,-9,nt,117,nt
Cc1cccc(C)c1NC(=O)CN(C)C(=O)c1cccc(S(=O)(=O)N2CCN(c3ccccc3)CC2)c1,9,2,71,121,+
COc1c(F)c(F)c(C(=O)Nc2ccc(-c3nc4ccccc4[nH]3)cc2)c(F)c1F,nt,8,-2,89,i
COc1cccc(OC)c1C(=O)NC(=S)Nc1cc(-c2nc3ccccc3[nH]2)ccc1Cl,nt,16,active,102,i
O=S(=O)(c1ccccc1F)N1CCCCN2[C@@H](CO)[C@@H](c3ccc(-c4ccncc4)cc3)[C@@H]2C1,8,nt,nt,nt,nt
CN(c1ccccc1)S(=O)(=O)c1cccc(NC(=O)Cn2cnc3c2c(=O)n(C)c(=O)n3C)c1,nt,-6,-14,98,i
Cn1c(=O)c2c(ncn2CC(=O)Nc2cccc(S(=O)(=O)Nc3ccccc3F)c2)n(C)c1=O,-14,45*,-14,120,i
O=C(O)C1(Nc2ccc(Cl)cc2)CCCC1,2,5,nt,91,nt
NC(=O)C1(Nc2ccc(-c3ccc(Cl)cc3)cc2)CCCC1,-23,-10,nt,54*,nt
COc1cccc2cc(C(=O)N3CCCCCCC3)c(=O)oc12,-7,21,0,19*,i
COc1cccc2cc(C(=O)N3CCN(C(=O)c4ccco4)CC3)c(=O)oc12,nt,3,-4,103,i
O=C(/C=C/c1ccc(-c2cccc([N+](=O)[O-])c2)o1)N1CCOCC1,-9,-7,1,86*,i
C[C@@H]1CCCCO[C@H](CN(C)Cc2ccncc2)[C@H](C)CN([C@H](C)CO)C(=O)c2cc(NC(=O)CCCN(C)C)ccc2O1,-21,nt,nt,nt,nt
Cc1ccccc1CN1C[C@@H]2C[C@@H](c3cn[nH]c3-c3ccccc3)N3CCC[C@@]23C1=O,nt,-10,1,99,i
O=C1N(C2CCCC2)C[C@@H]2C[C@@H](c3cn[nH]c3-c3ccc(Cl)cc3)N3CCC[C@@]123,-6,-6,4,89,+
CCCN(C)C[C@H]1OCCCC[C@H](C)Oc2ccc(NS(=O)(=O)c3ccccc3)cc2C(=O)N([C@H](C)CO)C[C@H]1C,4,nt,nt,nt,nt

# Structural class, the entries above containing a Cl atom
SMILES,UUG fidelity,PABP1 MLLE inh,eIF4H inh,Pemphigus Ab inh,PABP polyA inh
CCNC(=O)C[C@@H]1CC[C@H]2[C@@H](COc3ccc(NC(=O)Nc4cccc(Cl)c4)cc3C(=O)N2C)O1,-4,nt,nt,nt,nt
COc1cccc(OC)c1C(=O)NC(=S)Nc1cc(-c2nc3ccccc3[nH]2)ccc1Cl,nt,16,active,102,i
O=C(O)C1(Nc2ccc(Cl)cc2)CCCC1,2,5,nt,91,nt
NC(=O)C1(Nc2ccc(-c3ccc(Cl)cc3)cc2)CCCC1,-23,-10,nt,54*,nt
O=C1N(C2CCCC2)C[C@@H]2C[C@@H](c3cn[nH]c3-c3ccc(Cl)cc3)N3CCC[C@@]123,-6,-6,4,89,+

# (further entries)
SMILES,UUG fidelity,PABP1 MLLE inh,eIF4H inh,Pemphigus Ab inh,PABP polyA inh
COc1ccc(C)cc1-n1nnnc1SCn1nnc2ccccc2c1=O,-29,46*,2,103,i
CO[C@@H]1CN(C)C(=O)c2cc(NC(=O)c3cnccn3)ccc2OC[C@@H](C)N(C(C)=O)C[C@@H]1C,-9,nt,nt,nt,nt
c1ccc(CCNc2nc3ccccc3n3nnnc23)cc1,-18,5,9,?,i
COc1ccc(CCNc2nc3ccccc3n3nnnc23)cc1OC,-8,21,?,102,+
CC(C)(C)c1ccc(C(=O)NC(=S)NNC(=O)c2cccs2)cc1,-42,22,15,81*,i
Cc1ccccc1C(=O)Nc1cccc(NC(=S)NC(=O)c2cccs2)c1,-11,17,-2,109,i
O=C(NC(=S)NNC(=O)c1cccs1)c1ccccc1,-30,22,10,nt,i
Cc1ccccc1C(=O)NNC(=S)NC(=O)c1cccs1,-29,31,7,79*,i
C[C@@H]1CCCCO[C@@H](CN(C)Cc2ccc(C(F)(F)F)cc2)[C@H](C)CN([C@H](C)CO)C(=O)c2cc(NC(=O)Nc3ccc(F)cc3)ccc2O1,8,nt,nt,nt,nt
C[C@H](CO)N1C[C@H](C)[C@@H](CN(C)C(=O)Nc2ccccc2)Oc2c(NC(=O)C3CC3)cccc2C1=O,-10,nt,nt,nt,nt
Cc1ccc(Cl)cc1N1CCN(C(=O)Cc2c(C(=O)O)[nH]c3ccc(Cl)cc23)CC1,nt,0,7,23*,i
O=C(O)c1cccc(S(=O)(=O)Nc2ccccc2C(=O)NCCc2ccccc2)c1,1,-8,-11,17*,i
O=C(O)c1cccc(S(=O)(=O)NCCc2ccccc2)c1,nt,4,-2,94,i
C/C(=N\Nc1ccc(C(=O)O)cc1)c1nc2ccccc2n1C,nt,nt,active,nt,+
O=C(O)[C@H]1[C@H](CO)[C@H]2Cn3c(ccc(-c4ccccc4)c3=O)[C@H]2N1CCc1ccccc1,7,nt,nt,nt,nt
COC(=O)C1=C(C)NC(=O)/C1=C\N(C)C,nt,43*,79*,100,+
COC(=O)C1=C(C)NC(=O)/C1=C\c1cccs1,-15,15,-1,nt,i
COc1ccc(NC(=O)/C(C#N)=C/C=C/c2ccco2)cc1,-1,14,78,122,+
O=C(C[C@@H]1C[C@@H]2c3cc(NC(=O)C4CCOCC4)ccc3O[C@@H]2[C@@H](CO)O1)NCc1cccc(F)c1,24,nt,nt,nt,nt
Cc1cc2c(c(=O)o1)C(c1ccc([N+](=O)[O-])o1)C(C#N)=C(N)O2 (configuration not stated),-28,14,93*,88,+
CCC(CC)C1C(C#N)=C(N)Oc2cc(C)oc(=O)c21 (configuration not stated),-8,-8,-7,98,i
NNc1ccc([N+](=O)[O-])c2[nH][nH]c(=O)c12,-23,-32,nt,83*,nt
O=C(CN1C(=O)NC2(CCCC2)C1=O)OCc1cc(=O)n2cc(Br)ccc2n1,-12,-18,47,65*,i
CC1(C)NC(=O)N(CC(=O)OCc2cc(=O)n3cc(Br)ccc3n2)C1=O,nt,8,-2,103,i
C[C@@H](NC(=O)C[C@@H]1C=C[C@H](NS(=O)(=O)c2cccc(F)c2)[C@H](CO)O1)c1ccccc1,1,nt,nt,nt,nt
FC(F)(F)c1nc2nc(Cl)c(Cl)nc2[nH]1,nt,-6,nt,101,nt
FC(F)(F)C(F)(F)C(F)(F)c1nc2nc(Cl)c(Cl)nc2[nH]1,-17,49*,nt,108,nt
